Data: PMC6208443 (2018)

T1: AtAGDP1 AGD56 (residues 375–517) (Arabidopsis thaliana, UniProt Q500V5 375-517)
T1 chain: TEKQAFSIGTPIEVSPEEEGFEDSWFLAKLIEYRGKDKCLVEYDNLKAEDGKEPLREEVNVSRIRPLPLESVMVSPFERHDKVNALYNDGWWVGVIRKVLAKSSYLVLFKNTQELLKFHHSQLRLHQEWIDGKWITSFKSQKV

T2: AtAGDP1 AGD34 (residues 198–364) (Arabidopsis thaliana, UniProt Q500V5 198-364)
T2 chain: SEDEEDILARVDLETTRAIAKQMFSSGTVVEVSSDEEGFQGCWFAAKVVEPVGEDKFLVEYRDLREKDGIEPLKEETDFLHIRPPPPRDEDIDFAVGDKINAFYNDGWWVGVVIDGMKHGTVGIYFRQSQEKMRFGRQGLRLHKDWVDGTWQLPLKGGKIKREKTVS


Assays:
[1] = target: T1, AtAGDP1 AGD56 (residues 375–517); test: ITC
[2] = target: T2, AtAGDP1 AGD34 (residues 198–364); test: ITC

Binder | Kd [1] [µM] | Kd [2] [µM]
ARTKQTARKSTGGKA (monomethyl-lysine at K9) [H3K9me1 peptide (ITC)] | 12.1 | 27.8
ARTKQTARKSTGGKA (dimethyl-lysine at K9) [H3K9me2 peptide (ITC)] | 6.25 | 13.4
